This is an account of results in US20140037798A1, “LIQUID NUTRITIONAL PRODUCTS COMPRISING METAL AMINO ACID CHELATES” (ABBOTT LABORATORIES, priority 2011, published 2014).

The conditions of this series: cocoa powder 0.80% (w/w), pH 6.8 HEPES, cocoa powder:iron 40:1, 99° C. thirty minutes, 0.45 μm filtrate.

As to “Ferric pyrophosphate [reference compound]”, the “Absorbance, Filtrate v. Blank, 535 nm” value turned out to be 667 mAU; the “Absorbance, Filtrate v. Blank, 600 nm” value was determined as 369 mAU; the “Absorbance, Filtrate v. Blank, 700 nm” value came out at 118 mAU.
